{
  "source": "patent US20020159969A1",
  "about": "“Small peptide-based therapeutics for reversing cancer-associated MUC-1 mucin-induced immunosuppression” (priority 1997, published 2002)",
  "tested_on": "T cells",
  "assay": "T cell proliferation assay with allo PBLs (3H-thymidine incorporation) with synthetic MUC-1 tandem repeat peptides",
  "assay_type": "cell-based, human",
  "settings": "50 U/ml IL-2 or 1 μg/ml anti-CD28 Mab",
  "protocol": "Enriched T cell populations were purified from buffy coats obtained from normal red cross donors using nylon wool columns by previously reported procedures. See, e.g., Agrawal et al., J. Immunol. 157: 2089-95 (1996) and Agrawal et al., J. Immunol. 157: 3229-34 (1996). For the allo MLR, mitomycin C treated allogeneic PBLs were co-cultured with purified T cells in the presence or absence of affinity purified MUC-1 mucin or control OSM. In most of the experiments, the T cells were cultured 6-7 days in AIM V medium in the absence or presence of MUC-1, MUC-1 derivative or OSM at the indicated concentration. After this time, the T cells were harvested, washed and cultured as indicated.\nFor the experiment depicted in FIG. 2, purified T cells (10^6/ml) were cultured in AIM V medium with allo PBLs in the absence or presence of MUC-1, MUC-1 derivative or OSM 10 μg/ml for 6-7 days. T cells were harvested and plated in 96 well flat bottom plates at 10^5/well with allo PBLs (10^5/well), in the presence or absence of affinity purified MUC-1, MUC-1 derivative or OSM. Control cultures were treated with either 50 U/ml IL-2 or 1 μg/ml anti-CD28 Mab. After 4 days of culture, ^3H-thymidine (1 μCi/well) was added. The cells were harvested on the fifth day and ^3H-thymidine incorporation was measured by liquid scintillation.",
  "data": [
    {"substance": "IL-2: cytokine interleukin-2, control treatment at 50 U/ml", "values": [
      {"measurement": "reversal of the reduction of T cell proliferation caused by MUC-1 tandem repeat peptides", "value": "reversed"}
    ]}
  ]
}
